For orientation: inhibition means how much of the control response was suppressed.

The entries are a selection whose mix differs from that of the whole data set. Activity calls are given as the source filed them.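 How the source made its calls: active means thallium signal drop beyond 5 SD of the untreated control mean, on both duplicate plates; inactive means the rest.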

The nature of this test: thallium flux in non-induced HEK293 cells, confirmation, counter-screen for KCNK9 inhibitor project, cell-based, second counter screen, non-induced KCNK9-HEK293 (AID 492997).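 Further: plate controls were buffer only IC0 wells for no effect and SID17386958 at its maximal inhibitory level for full effect.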 The conditions noted are these: non-induced KCNK9-HEK293, FluxOR thallium flux; at 10 µM; active compounds read high. (In general: The purpose of a counterscreen is to sort out artefacts and off-target activity.)
Consider `O=P(Nc1nccs1)(c1ccccc1)c1nc2ccccc2s1` (stereo unspecified), for which the inhibition is active: 25%.

The values above are taken from PubChem BioAssay AID492997 (Johns Hopkins Ion Channel Center, 2010).
